Results taken from paper PMC10272835 (2023).

Key:
Assay in all cases: SPR
dual SH2 domains of SHP1 [1] = molecular target: T1, dual SH2 domains of SHP1
T1 chain: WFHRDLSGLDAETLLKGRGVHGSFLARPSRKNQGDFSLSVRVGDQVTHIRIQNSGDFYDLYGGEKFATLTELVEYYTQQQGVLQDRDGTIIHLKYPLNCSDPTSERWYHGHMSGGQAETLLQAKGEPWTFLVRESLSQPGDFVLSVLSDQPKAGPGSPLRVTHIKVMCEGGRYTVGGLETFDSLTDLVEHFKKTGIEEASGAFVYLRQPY

[2] = molecular target: T2, C-terminal SH2 domain of SHP1
T2 chain: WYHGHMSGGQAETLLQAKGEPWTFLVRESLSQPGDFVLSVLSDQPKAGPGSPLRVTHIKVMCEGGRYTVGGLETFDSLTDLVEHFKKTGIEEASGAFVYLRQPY

dual SH2 domains of SHP2 = molecular target: T3, dual SH2 domains of SHP2
T3 chain: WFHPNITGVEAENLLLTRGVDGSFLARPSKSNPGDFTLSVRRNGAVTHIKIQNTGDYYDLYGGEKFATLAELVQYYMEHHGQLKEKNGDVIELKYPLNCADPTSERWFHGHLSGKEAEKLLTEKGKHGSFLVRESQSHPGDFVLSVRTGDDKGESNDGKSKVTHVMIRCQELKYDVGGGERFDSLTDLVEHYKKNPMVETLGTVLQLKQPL

[3] = molecular target: T4, N-terminal SH2 domain of SHP2
T4 chain: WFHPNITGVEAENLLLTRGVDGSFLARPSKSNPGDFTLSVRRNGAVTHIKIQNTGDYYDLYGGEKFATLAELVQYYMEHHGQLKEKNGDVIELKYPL

[4] = molecular target: T5, C-terminal SH2 domain of SHP2
T5 chain: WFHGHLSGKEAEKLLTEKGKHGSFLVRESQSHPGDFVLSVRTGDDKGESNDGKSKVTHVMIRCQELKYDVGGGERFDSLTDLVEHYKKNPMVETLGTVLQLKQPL

dual SH2 domains of SHP1 [5] = molecular target: T1, dual SH2 domains of SHP1
[6] = molecular target: T2, C-terminal SH2 domain of SHP1

B1: phosphorylated PD1 ITSM peptide (peptide)
chain: KTPEPPVPSVPEQTEYATIVFPSGMGTSS
modifications: phosphorylated (phospho-ITSM; residue not printed in the text shown); biotinylated for SPR
- koff (dual SH2 domains of SHP1 [1]): 0.000214 s⁻¹
- koff [2]: 0.000339 s⁻¹
- koff (dual SH2 domains of SHP2): 0.00108 s⁻¹
- koff [3]: 0.00108 s⁻¹
- koff [4]: 0.000694 s⁻¹
- Kd (dual SH2 domains of SHP1 [5]): 4.55 nM
- Kd [6]: 6.38 nM
